Assay results from patent US20030181436A1, “Treatment for AIDS, HIV, and other related diseases and compounds for use therewith” (priority 2001, published 2003).

Test: Water solubility of the prepared compound
Format: physicochemical

Row | Substance | solubility in water
1 | Bismuth iodiscorbate | water soluble
2 | Potassium Iodiscorbate [Compound K] | water soluble
3 | Zinc Iodiscorbate [Compound Z] | water soluble
